Measured values as given in paper PMC4804703 (ACS chemical neuroscience, 2015).

Amino acid sequences for entries named in this document (tags omitted).
UniProt P47746, whole entry: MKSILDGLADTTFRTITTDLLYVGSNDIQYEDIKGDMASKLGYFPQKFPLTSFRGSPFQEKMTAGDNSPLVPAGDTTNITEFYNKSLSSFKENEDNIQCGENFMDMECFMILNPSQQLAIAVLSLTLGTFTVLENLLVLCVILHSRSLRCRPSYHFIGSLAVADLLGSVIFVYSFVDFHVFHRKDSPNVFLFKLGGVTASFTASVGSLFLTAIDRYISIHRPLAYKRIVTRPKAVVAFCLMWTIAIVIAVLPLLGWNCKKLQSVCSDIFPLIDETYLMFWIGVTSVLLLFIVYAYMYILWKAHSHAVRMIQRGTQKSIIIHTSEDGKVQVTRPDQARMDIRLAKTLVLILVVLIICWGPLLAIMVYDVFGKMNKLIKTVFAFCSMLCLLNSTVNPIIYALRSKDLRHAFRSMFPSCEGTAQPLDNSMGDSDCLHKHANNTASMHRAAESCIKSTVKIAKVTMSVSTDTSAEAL

Target: CB1R in mouse hippocampus (Mus musculus, UniProt P47746)
Assay: [^35S]GTPγS binding, mouse hippocampus membranes
Type: biochemical

CCCCC/C=C\C/C=C\C/C=C\C/C=C\CCCC(=O)NCCO [AEA, arachidonoylethanolamide, reference compound]
EC50: 4.2 ± 1 µM
